# In patent US11071788B2, “Antibody drug conjugates of kinesin spindel protein (KSP) inhibitors with antiB7H3-antibodies” (BAYER PHARMA AKTIENGESELLSCHAFT, priority 2015, dated 2021):
# Test: in vitro
# Details: human, Caco-2
SMILES,Papp B→A at 2 h [×10⁻⁶ cm/s],efflux ratio at 2 h
"CC(C)(C)[C@H](c1cc(-c2cc(F)ccc2F)cn1Cc1ccccc1)N(CC[C@H](N)C(=O)NCCNC(=O)CNC(=O)C(CC(=O)O)SC[C@H](N)C(=O)O)C(=O)CO (mixture of isomers) [Example M27, 4-[(2-{[2-({(2S)-2-Amino-4-[{(1R)-1-[1-benzyl-4-(2,5-difluorophenyl)-1H-pyrrol-2-yl]-2,2-dimethylpropyl}(glycoloyl)amino]butanoyl}amino)ethyl]amino}-2-oxoethyl)amino]-3-{[(2R)-2-amino-2-carboxyethyl]sulfanyl}-4-oxobutanoic acid-trifluoroacetic acid (1:1)]",1.32,–
"CC(C)(C)[C@H](c1cc(-c2cc(F)ccc2F)cn1Cc1ccccc1)N(CCCN)C(=O)CO [Example M9, N-(3-Aminopropyl)-N-{(1R)-1-[1-benzyl-4-(2,5-difluorophenyl)-1H-pyrrol-2-yl]-2,2-dimethylpropyl}-2-hydroxyacetamide]",21.3,–
"CC(C)(C)[C@H](c1cc(-c2cc(F)ccc2F)cn1Cc1ccccc1)N(CCCN)C(=O)CSC[C@H](N)C(=O)O.O=C(O)C(F)(F)F.O=C(O)C(F)(F)F [Example M11, S-{2-[(3-Aminopropyl){(1R)-1-[1-benzyl-4-(2,5-difluorophenyl)-1H-pyrrol-2-yl]-2,2-dimethyl-propyl}amino]-2-oxoethyl}-L-cysteine/trifluoroacetic acid (1:2)]",2.43,27.7
